One assay deals with SERT (Rattus norvegicus, UniProt P31652). The assay is described as follows: Inhibition of [3H]5-HT uptake in rat brain synaptosomes. The format is biochemical.
The next assay addresses NET (Rattus norvegicus, UniProt Q63380). The assay can be described thus: Inhibition of [3H]norepinephrine uptake in rat brain synaptosomes. The format is biochemical.

By UniProt entry, the sequences of proteins in these tests, tags left out. Residues count along the entry.
UniProt P31652, whole entry: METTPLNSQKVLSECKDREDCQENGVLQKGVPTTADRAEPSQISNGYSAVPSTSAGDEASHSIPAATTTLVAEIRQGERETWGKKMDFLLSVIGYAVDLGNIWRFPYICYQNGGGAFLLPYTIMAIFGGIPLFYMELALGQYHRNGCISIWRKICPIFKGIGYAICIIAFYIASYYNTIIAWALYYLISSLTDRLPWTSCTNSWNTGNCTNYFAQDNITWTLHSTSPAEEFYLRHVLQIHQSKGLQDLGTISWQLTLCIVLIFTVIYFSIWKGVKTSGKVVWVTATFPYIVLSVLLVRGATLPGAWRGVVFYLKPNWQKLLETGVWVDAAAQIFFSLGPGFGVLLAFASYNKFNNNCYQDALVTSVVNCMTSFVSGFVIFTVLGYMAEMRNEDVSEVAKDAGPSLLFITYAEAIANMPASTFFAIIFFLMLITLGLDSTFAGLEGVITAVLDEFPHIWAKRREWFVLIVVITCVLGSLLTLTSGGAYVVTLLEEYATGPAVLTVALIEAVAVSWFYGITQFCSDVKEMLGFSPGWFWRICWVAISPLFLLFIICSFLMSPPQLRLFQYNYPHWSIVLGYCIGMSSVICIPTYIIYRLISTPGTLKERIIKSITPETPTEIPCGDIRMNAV
UniProt Q63380, 1-617: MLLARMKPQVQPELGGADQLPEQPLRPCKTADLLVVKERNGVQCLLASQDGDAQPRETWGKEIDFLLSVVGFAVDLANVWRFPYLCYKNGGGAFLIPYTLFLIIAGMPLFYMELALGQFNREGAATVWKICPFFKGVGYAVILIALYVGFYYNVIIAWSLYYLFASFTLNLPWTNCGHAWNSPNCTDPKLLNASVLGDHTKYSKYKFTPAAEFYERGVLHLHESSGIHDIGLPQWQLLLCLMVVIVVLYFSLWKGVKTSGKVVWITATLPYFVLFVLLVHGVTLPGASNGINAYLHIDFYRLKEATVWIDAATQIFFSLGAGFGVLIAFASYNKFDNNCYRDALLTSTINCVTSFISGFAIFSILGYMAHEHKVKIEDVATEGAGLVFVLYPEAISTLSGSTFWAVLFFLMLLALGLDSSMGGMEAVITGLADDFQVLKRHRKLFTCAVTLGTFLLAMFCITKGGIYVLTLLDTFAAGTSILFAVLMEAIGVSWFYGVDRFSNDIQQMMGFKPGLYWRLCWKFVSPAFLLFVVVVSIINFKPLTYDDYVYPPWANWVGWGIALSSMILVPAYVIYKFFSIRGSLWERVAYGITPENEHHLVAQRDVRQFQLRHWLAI

What is called IC50 is the concentration that gives 50% inhibition. High values mean a need for much substance, low ones inhibition by little substance. Take `COC(=O)[C@H]1[C@@H](OC(=O)c2ccccc2)C[C@@H]2CC[C@H]1N2C` [Cocaine, (−)-cocaine, reference compound]: the values for the IC50 at SERT and at NET were 0.318 ± 0.0072 µM and 0.247 ± 0.0207 µM, respectively.

Values taken from PMC7217742 (Addiction biology, 2019).
